Assay [1] deals with SKBR3, BT474, and MDA-MB-453 cell lines. In words: colony formation assay with trastuzumab, pBabe vs FoxM1 stable lines. The class given is cell-based, human. To be noted: trastuzumab 10 ug/ml continuously for 14-17 days. The procedure: To investigate the effects of FoxM1 overexpression on trastuzumab resistance in breast tumor cells, FoxM1 expression cDNA construct was stably introduced into SKBR3, BT474, and MDA-MB-453 cell lines. All three cell lines have chromosomal amplification of HER2/ErbB2 and only the BT474 cell line expresses estrogen receptor. Drug sensitivity of the FoxM1 stably transfected cell lines was tested by colony formation assay. […] 24 hours later, cells were treated with trastuzumab (10 ug/ml) continuously for 14-17 days. […] Quantification was done using Adobe Photoshop (Lehr et al., 1997, “Application of photoshop-based image analysis to quantification of hormone receptor expression in breast cancer,” J. Histochem Cytochem 45: 1559-65). […] The results provide evidence that FoxM1 confers cells resistance to trastuzumab.

In assay [2] the test system is SKBR3, BT474, and MDA-MB-453 pBabe and FoxM1 cell lines. In words: cell cycle analysis by propidium iodide staining and flow cytometry. The class given is cell-based, human. The protocol: The percentage of G1/S arrest in the cell cycle induced by trastuzumab (referred to as HERCEPTIN in the drawings contained herein) was measured by propidium iodide staining followed by flow cytometry (FACS) analysis. Cells were treated with trastuzumab (10 ug/ml) for 72 hours and cell cycle profiles examined. For cell cycle analysis, cells were trypsinized, pelleted, and resuspended in propidium iodide (PI) solution (50 ug/ml PI, 0.1 mg/ml RNaseA, 0.05% Triton-X). After 40 minutes of incubation at 37° C., cells were analyzed using a flow cytometer. Synchronization of MDA-MB-453 cells for cell cycle analysis was done by subjecting the cells to serum starvation (0.2% FBS) for 24 hours, followed by incubating the cells in medium containing 10% FBS for 6 hours, and addition of 5 ug/ml of aphidicolin (Calbiochem) for 16 hours.

The subject of assay [3] is SKBR3-pBabe and FoxM1 lines. In words: BrdU incorporation. It is filed as cell-based, human. To be noted: treated for 72 hours. The procedure: Further, incorporation of BrdU was measured in cells treated with HERCEPTIN (FIG. 1C). 5-Bromo-2-Deoxyuridine (BrDU, obtained from Sigma Chemical Co., St. Louis, Mo.; 10 μM) was added to the culture media. Cells were fixed and stained with mouse anti-BrdU antibody (1:250, Dako, Carpinteria, Calif.) followed by FITC-conjugated anti-mouse antibody (Dako) and DAPI (Molecular Probes/Invitrogen).

In assay [4] the test system is FoxM1 and p27 protein levels in SKBR3-pBabe and SKBR3-FoxM1 cells. In words: western blot of FoxM1 and p27 levels. It is filed as cell-based, human. The protocol: Cell extracts were prepared in lysis buffer containing 1 mM EDTA, 0.15M NaCl, 0.05M Tris-HCl pH 7.5, and 0.5% Triton-X. Phosphatate Inhibitor Cocktail Set II (200 mM imidazole, 100 mM sodium fluoride, 115 mM sodium molybdate, 100 mM sodium orthovanadat, and 400 mM sodium tartrate, dehydrate, catalog No. 524625, Calbiochem) and protease inhibitor (Roche, catalog No. 11873580001, previously No. 115773860001) were added before each experiment. FoxM1 protein levels were determined by western blot analysis using a rabbit polyclonal antibody against FoxM1 previously described (Major et al., 2004, “Forkhead Box M1B transcriptional activity requires binding of Cdk-cycline complexes for phosphorylation-dependent recruitment of p300/CBP coactivators,” Mol Cell 24: 2649-61). Anti kip1/p27 (1:10,000, BD Biosciences), and anti-Cdk2 (1:200, Santa Cruz Biotech.) antibodies were also used. Quantification was performed using Image J software (NIH).
(In western blotting, separated proteins are transferred to a membrane and probed.)

The test system of assay [5] is resistant SKBR3, MDA-MB-453, and BT474 lines. In words: growth of HERCEPTIN resistant lines. The class given is cell-based, human. The conditions noted are these: after six months continuous culture in 5 ug/ml. The protocol:
To determine whether cells resistant to HERCEPTIN could be resensitized to HERCEPTIN treatment, a cell line resistant to HERCEPTIN was generated. Parental SKBR3, MDA-MB-453, and BT474 lines were cultured continuously in 5 ug/ml of HERCEPTIN for six months. […] The source of resistance in these lines was not uniform, as an increase in phosphorylated Akt was only observed in SKBR3 cells. FoxM1 levels in parental and resistant lines were assayed by western blot analysis. Extracts were prepared in lysis buffer containing 1 mM EDTA, 0.15M NaCl, 0.05M Tris-HCl pH 7.5, and 0.5% Triton-X. Phosphatate Inhibitor Cocktail Set II (Calbiochem) and protease inhibitor (Roche) were added before each experiment using the rabbit polyclonal antibody referenced above. Quantification was performed using Image J software (NIH).

For assay [6] the following is noted: cited from earlier work.
[7] abbreviates: control SKBR3 cells, 10 ug/ml for 24-72 hours or 0.1-10 ug/ml.

Here are results for one substance from patent US20130142784A1, “METHOD OF TREATING TUMOR RESISTANT TO HERCEPTIN OR PACLITAXEL USING FOXM1 INHIBITORS AND DETECTING SAME” (The Board of Trustees of the University of Illinois, priority 2010, published 2013).

With “HERCEPTIN: humanized monoclonal antibody directed to the extracellular domain of HER2/ErbB2”, in assay [1], the “colony number, FoxM1 overexpression compared to pBabe alone” value is listed as “three- to seven-fold increase in colony number”. The G1 population entry in assay [2] (FoxM1-expressing cells, 10 ug/ml) is listed as “did not exhibit any significant increase”. Moreover, in assay [2] (all cell lines, data not shown), the sub-G1 population entry is “None of the cell lines showed an increase”. The “number of cells in G1” value in assay [2] (control pBabe lines, 10 ug/ml) is “statistically significant increase”. The BrdU-incorporation result in assay [3] (FoxM1-expressing cells) was “did not show any significant decrease”. In assay [3] (SKBR3-pBabe), the “reduction in the number of BrdU-positive cells” value is 35%. Further, the p27 levels entry in assay [4] (SKBR3-FoxM1 cell lines, high doses) is on record as “remained low”. Besides, in assay [4] (setting [7]), the FoxM1 protein levels result is reported as “decreased” and the p27 levels result was “accumulated”. Besides, in assay [5], the “growth rate of resistant cells” value is listed as “grew at the same rate in the presence or absence of HERCEPTIN”. Also, the “efficacy of combinatorial treatment” value in assay [6] (combinatorial treatment with microtubule stabilizing drugs such as paclitaxel) was “approximately 60%”. Further, the “efficacy as a monotherapy” value in assay [6] (monotherapy) is given as “less than 30%”.
